Chains of the proteins cited; added tags and fusions are not shown. Lines headed by an entry give the natural chain unless they say otherwise; changes in a name come on top.
UniProt P33527: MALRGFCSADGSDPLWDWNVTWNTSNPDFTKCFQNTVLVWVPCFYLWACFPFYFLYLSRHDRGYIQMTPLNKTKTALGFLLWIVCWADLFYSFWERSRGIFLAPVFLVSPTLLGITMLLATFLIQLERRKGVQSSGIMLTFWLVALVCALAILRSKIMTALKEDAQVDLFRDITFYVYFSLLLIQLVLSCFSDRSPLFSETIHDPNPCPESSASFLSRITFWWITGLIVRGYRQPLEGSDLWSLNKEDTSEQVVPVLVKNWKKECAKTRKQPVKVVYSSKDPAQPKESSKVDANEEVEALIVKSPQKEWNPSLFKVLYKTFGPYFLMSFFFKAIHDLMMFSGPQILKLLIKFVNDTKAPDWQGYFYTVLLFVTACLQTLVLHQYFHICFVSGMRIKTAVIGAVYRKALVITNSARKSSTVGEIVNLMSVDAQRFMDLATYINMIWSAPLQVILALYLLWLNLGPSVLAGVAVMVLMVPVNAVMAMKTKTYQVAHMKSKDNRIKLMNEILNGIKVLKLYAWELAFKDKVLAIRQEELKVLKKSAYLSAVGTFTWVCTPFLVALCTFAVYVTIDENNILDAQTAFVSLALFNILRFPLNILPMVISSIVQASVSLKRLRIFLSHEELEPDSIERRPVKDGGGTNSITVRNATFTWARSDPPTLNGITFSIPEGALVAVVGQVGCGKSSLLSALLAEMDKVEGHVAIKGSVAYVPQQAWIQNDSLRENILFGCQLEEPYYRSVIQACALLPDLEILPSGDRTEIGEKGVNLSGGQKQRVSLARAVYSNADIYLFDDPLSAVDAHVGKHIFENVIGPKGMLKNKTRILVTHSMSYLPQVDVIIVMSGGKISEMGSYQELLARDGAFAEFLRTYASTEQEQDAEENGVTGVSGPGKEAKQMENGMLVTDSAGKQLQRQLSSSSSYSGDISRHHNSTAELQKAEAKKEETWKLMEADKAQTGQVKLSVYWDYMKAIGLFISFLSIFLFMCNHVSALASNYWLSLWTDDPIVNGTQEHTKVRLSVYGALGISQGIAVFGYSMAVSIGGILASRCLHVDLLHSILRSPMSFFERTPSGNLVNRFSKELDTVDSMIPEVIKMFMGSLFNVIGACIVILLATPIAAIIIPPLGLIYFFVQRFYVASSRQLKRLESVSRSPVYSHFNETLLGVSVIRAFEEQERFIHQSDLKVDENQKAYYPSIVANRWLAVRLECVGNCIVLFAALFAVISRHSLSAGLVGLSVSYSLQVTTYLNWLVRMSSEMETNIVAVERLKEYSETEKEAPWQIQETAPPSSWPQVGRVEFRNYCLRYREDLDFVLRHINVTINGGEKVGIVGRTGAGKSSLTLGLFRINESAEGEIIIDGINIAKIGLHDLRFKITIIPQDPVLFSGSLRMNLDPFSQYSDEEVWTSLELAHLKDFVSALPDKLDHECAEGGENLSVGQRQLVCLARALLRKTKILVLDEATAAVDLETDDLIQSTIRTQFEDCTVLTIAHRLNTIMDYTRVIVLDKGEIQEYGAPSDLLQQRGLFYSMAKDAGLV

In ChEMBL document CHEMBL1140936, “Topological polar surface area defines substrate transport by multidrug resistance associated protein 1 (MRP1/ABCC1)” (J Med Chem, 2009):

Biological target: Multidrug resistance-associated protein 1 (Homo sapiens, UniProt P33527)
Assay: Activity of MRP1

Work on `N[C@@H](CCC(=O)N[C@@H](CS[As](SC[C@H](NC(=O)CC[C@H](N)C(=O)O)C(=O)NCC(=O)O)SC[C@H](NC(=O)CC[C@H](N)C(=O)O)C(=O)NCC(=O)O)C(=O)NCC(=O)O)C(=O)O` yielded a Km of 0.32 µM.
